Protein sequences, listed by entry. Tags and fused reporters are not part of them.
UniProt O00206, whole entry: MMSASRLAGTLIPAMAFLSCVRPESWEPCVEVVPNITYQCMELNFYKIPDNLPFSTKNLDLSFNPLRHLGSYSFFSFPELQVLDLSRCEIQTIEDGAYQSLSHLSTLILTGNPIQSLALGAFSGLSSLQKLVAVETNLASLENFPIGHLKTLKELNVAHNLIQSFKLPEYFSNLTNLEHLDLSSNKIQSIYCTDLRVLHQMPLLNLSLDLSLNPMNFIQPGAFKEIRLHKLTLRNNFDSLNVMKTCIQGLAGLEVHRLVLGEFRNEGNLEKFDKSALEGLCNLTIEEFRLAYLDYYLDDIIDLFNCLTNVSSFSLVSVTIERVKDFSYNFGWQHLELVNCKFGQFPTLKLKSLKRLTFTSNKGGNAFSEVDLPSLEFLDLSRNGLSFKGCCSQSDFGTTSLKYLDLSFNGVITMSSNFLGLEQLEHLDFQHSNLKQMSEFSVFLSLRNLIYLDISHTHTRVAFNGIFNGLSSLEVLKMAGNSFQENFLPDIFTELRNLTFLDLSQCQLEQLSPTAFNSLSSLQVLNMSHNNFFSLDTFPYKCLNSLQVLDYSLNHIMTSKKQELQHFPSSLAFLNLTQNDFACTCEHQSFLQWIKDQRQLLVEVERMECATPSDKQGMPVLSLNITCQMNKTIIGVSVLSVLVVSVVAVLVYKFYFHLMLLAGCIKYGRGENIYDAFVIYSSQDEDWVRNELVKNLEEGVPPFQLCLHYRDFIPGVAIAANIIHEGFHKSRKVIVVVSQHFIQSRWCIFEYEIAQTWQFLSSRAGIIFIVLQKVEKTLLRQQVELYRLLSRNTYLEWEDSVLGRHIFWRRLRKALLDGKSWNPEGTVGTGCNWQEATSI
UniProt O60602, whole entry: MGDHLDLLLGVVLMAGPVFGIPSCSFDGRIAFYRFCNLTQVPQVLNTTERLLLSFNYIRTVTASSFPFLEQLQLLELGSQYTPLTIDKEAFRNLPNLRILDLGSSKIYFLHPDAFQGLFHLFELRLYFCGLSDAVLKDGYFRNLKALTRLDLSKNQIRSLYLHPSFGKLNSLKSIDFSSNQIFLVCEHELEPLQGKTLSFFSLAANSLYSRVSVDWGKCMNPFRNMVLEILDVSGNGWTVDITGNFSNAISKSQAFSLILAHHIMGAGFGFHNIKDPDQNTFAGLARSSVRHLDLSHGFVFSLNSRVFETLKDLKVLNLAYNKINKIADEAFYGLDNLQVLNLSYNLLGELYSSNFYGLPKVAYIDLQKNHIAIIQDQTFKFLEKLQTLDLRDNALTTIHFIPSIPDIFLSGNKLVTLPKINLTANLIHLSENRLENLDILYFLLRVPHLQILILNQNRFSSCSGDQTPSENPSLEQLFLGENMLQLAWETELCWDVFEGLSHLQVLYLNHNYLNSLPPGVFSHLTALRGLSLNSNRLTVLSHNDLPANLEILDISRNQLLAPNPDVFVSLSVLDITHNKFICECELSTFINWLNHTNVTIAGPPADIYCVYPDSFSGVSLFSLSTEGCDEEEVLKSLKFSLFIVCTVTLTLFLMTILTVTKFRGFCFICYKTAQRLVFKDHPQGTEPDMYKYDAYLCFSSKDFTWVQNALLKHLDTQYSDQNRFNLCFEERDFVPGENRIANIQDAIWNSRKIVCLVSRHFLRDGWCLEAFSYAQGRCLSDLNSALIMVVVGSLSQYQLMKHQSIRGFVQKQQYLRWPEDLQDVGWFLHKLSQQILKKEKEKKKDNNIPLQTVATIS

In ChEMBL document CHEMBL5518233, “Design and Synthesis of 3-(2H-Chromen-3-yl)-5-aryl-1,2,4-oxadiazole Derivatives as Novel Toll-like Receptor 2/1 Agonists That Inhibit Lung Cancer In Vitro and In Vivo” (J Med Chem, 2024):

Key:
Format in all cases: cell-based
Conditions in all cases: dose 0.01-50 µM
[1] = molecular target: T1, Toll-like receptor 3 (Homo sapiens) (UniProt O15455); assay: Agonist activity at human TLR3 transfected in HEK293T cells at 0.01 to 50 uM incubated for 24 hrs by dual luciferase reporter gene assay
T1 sequence (whole entry): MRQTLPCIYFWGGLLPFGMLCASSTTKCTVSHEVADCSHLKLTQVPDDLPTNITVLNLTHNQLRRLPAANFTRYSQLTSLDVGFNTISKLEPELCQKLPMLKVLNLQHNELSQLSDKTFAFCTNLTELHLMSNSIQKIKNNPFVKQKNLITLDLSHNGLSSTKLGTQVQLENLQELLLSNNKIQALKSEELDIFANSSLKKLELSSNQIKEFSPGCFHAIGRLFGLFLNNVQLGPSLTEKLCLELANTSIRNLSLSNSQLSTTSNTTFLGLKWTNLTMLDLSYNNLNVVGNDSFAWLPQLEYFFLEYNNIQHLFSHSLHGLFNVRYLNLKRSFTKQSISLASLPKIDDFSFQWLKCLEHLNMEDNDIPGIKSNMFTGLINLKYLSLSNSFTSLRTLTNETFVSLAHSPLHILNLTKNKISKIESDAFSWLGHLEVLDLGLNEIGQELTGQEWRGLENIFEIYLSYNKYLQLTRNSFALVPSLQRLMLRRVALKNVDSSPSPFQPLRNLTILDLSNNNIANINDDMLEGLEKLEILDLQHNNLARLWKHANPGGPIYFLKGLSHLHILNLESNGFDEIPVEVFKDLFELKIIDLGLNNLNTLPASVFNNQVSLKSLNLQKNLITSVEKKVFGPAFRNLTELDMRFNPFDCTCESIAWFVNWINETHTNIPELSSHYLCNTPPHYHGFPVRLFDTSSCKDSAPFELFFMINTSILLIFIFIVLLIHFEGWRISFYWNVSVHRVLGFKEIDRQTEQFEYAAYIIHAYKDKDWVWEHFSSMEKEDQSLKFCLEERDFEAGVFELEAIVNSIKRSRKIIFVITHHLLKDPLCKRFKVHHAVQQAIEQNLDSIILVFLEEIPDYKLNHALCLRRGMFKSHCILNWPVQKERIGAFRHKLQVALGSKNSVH

[2] = molecular target: Toll-like receptor 4 (Homo sapiens) (UniProt O00206); assay: Agonist activity at human TLR4 transfected in HEK293T cells at 0.01 to 50 uM incubated for 24 hrs by dual luciferase reporter gene assay
[3] = molecular target: Toll-like receptor 5 (Homo sapiens) (UniProt O60602); assay: Agonist activity at human TLR5 transfected in HEK293T cells at 0.01 to 50 uM incubated for 24 hrs by dual luciferase reporter gene assay
[4] = molecular target: T2, Toll-like receptor 9 (Homo sapiens) (UniProt Q9NR96); assay: Agonist activity at human TLR9 transfected in HEK293T cells at 0.01 to 50 uM incubated for 24 hrs by dual luciferase reporter gene assay
T2 sequence (whole entry): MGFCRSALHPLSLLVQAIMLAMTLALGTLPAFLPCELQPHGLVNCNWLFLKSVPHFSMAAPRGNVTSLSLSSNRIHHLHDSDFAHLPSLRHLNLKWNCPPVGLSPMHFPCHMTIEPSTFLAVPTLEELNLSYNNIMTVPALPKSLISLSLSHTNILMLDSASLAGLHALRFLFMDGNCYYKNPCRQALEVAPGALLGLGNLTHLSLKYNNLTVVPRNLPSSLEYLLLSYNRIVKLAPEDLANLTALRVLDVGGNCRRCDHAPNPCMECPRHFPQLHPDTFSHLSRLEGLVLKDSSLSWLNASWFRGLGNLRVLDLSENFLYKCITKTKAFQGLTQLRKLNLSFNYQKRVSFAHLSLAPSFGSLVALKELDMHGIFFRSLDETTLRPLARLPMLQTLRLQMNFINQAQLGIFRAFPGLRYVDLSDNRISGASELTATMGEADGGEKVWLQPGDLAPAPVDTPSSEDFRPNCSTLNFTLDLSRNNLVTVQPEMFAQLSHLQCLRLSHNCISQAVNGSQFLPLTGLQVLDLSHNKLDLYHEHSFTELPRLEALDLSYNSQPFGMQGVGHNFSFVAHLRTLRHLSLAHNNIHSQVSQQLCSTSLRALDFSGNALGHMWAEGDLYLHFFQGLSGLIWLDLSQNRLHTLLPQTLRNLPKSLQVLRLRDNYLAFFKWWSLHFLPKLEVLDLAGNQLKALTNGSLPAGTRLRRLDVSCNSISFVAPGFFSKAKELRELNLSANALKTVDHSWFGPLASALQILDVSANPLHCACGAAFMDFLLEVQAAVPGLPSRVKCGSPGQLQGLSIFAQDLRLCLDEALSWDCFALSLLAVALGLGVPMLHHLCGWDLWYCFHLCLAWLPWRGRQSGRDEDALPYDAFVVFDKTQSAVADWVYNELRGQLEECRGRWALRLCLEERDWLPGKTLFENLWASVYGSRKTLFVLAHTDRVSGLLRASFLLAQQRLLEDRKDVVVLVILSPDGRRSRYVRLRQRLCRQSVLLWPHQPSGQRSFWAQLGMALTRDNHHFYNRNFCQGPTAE

Measured: Activity

O=[N+]([O-])c1ccc(F)c(-c2nc(C3=Cc4cc(F)ccc4OC3)no2)c1
inactive: all assays above

The source made the active and inactive calls.
